# Binding of CDR-mutated scFvs to a peptide of the spike HR2 region

Values reported by Engelhart et al. 2022, doi:10.1038/s41597-022-01779-4 (FLAb copy).

The target is the same throughout: PDVDLGDISGINAS, from the HR2 region of SARS-CoV-2 spike.

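The starting antibody came from a phage panning campaign against this peptide. The library (AAYL50) carries one to three amino acid substitutions per variant, with no insertions or deletions. The assay is AlphaSeq: two haploid yeast populations carry antibody and antigen on their surface. Pairs that bind mate more often; barcode pairs of the diploids are counted by sequencing. Read counts were normalised to the haploid input and turned into Kd by a linear fit to BCL2-family pairs of known affinity, for each replicate. Mating was done three times.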

Parent: Ab-14, a human scFv built as VH, the linker GGGGSGGGGSGGGGS, VL. Only the CDRs of the light chain vary.
VH: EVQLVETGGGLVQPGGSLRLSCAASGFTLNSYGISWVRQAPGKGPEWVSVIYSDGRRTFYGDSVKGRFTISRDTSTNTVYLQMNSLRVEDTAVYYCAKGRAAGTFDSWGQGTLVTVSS
VL: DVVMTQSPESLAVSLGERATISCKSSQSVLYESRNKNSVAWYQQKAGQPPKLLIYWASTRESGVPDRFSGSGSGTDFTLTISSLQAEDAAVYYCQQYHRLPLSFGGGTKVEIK

Substitutions are numbered in sequence along the VL above, starting at 1 (not Kabat). Numbers give log10(Kd / nM), so 0 is 1 nM and 3 is 1 µM. Smaller is tighter. A mean of the replicates is given; it leaves out those without a signal. "nd" means that the variant was in the library but no mating with the target was seen in that replicate; the authors take this as a sign of poor binding, and no number exists.

S26A+N35W+S62N: 1.24, 1.46, 1.32 (mean 1.34; controls 3 of 9).
Y31F+W56H+A57W: nd, nd, nd (controls 0 of 9).
E32R+S62I+R99A: 3.05, 2.53, 2.28 (mean 2.62; controls 1 of 9).
V39I+Q96S+L100R: 4.60, nd, 6.23 (mean 5.42; controls 3 of 9).
S25L+V39G+R99A: 4.38, 3.60, nd (mean 3.99; controls 2 of 9).
N35F+S62A+L100C: nd, 3.67, nd (controls 0 of 9).
R34F+N35T+K36Q: 1.68, 1.84, 1.96 (mean 1.83; controls 3 of 9).
V29G+S38W+S62G: nd, nd, nd (controls 1 of 9).
S62L+Y97W+S103M: 0.49, 0.72, 0.66 (mean 0.62; controls 2 of 9).
S38R+V39Y+Y97V: 3.35, 3.87, nd (mean 3.61; controls 1 of 9).
V29C+Y31F: 0.79, 1.01, 0.88 (mean 0.89; controls 1 of 9).
S33Q+P101Q: nd, nd, nd (controls 1 of 9).
S25K+A40P+Q95N: nd, nd, nd (controls 0 of 9).
Q27R+L100G+L102S: nd, nd, nd (controls 0 of 9).
K24Y+E61Q+Q96W: 5.79, nd, nd (controls 4 of 9).
S33Y+S38K+Q95H: nd, nd, nd (controls 0 of 9).
V29Y+R34E+V39W: 3.02, nd, nd (controls 3 of 9).
S58P+Y97R+H98N: nd, nd, nd (controls 3 of 9).
K24H+S25T+H98P: nd, nd, nd (controls 0 of 9).
A40D+E61K+L100P: nd, nd, nd (controls 1 of 9).
S33F+S62L+L100Y: nd, 1.79, nd (controls 0 of 9).
V29R+Y31W+W56C: 1.97, 1.73, 1.98 (mean 1.89; controls 3 of 9).
S33C+A57F+H98W: 6.26, 3.53, nd (mean 4.89; controls 4 of 9).
Y31K+R99H+L102P: 1.59, 1.37, 1.68 (mean 1.55; controls 3 of 9).
N37E+V39G+P101I: 4.75, 4.36, 4.18 (mean 4.43; controls 1 of 9).
R60A+R99S+L100E: nd, 3.66, nd (controls 1 of 9).
Y31M+R34Y+L102F: 0.35, 0.34, 0.28 (mean 0.32; controls 0 of 9).
K24R+R60Y+L102E: nd, nd, nd (controls 0 of 9).
K24D+N37I+V39T: nd, 3.46, 3.96 (mean 3.71; controls 4 of 9).
Q27A+L30I+S103R: 3.48, 2.46, 3.06 (mean 3.00; controls 2 of 9).
S28L+Q96F: 2.64, 3.03, 2.60 (mean 2.76; controls 0 of 9).
Q27V+T59L+L102Q: nd, nd, nd (controls 0 of 9).
L30C+A57W+S103R: nd, nd, nd (controls 2 of 9).
Q95L+Q96W+H98D: nd, nd, nd (controls 0 of 9).
Q27I+V29Y+N37H: 2.26, 2.13, 1.97 (mean 2.12; controls 2 of 9).
E32K+A57D+R60Q: nd, nd, nd (controls 1 of 9).
E32M+S33Y+K36M: 2.37, 2.57, 2.41 (mean 2.45; controls 0 of 9).

3 of these entries, quoted again:

For N37E+V39G+P101I, the assay gave 4.75, 4.36, 4.18 (mean 4.43; controls 1 of 9).
For V29C+Y31F, the assay gave 0.79, 1.01, 0.88 (mean 0.89; controls 1 of 9).
For S25K+A40P+Q95N, the assay gave nd, nd, nd (controls 0 of 9).

In this assay the parent's reference entry averaged 0.65; its copy inside this library read 1.68. Background: pairings of library AAYL50 with three empty control strains gave a value in 18% of cases (median 4.19, 5th percentile 2.99). Values in that range, when seen in few replicates, are hard to tell from nonspecific mating. Also given: how often the same scFv was detected with the empty control strains.